From patent US11090304B2 (Amgen Inc., priority 2018, dated 2021)

Sequences of proteins named here, by UniProt entry; tags and fusion partners are left off. A change or cut given only in a name is not applied to a line headed by its entry.
UniProt P01116: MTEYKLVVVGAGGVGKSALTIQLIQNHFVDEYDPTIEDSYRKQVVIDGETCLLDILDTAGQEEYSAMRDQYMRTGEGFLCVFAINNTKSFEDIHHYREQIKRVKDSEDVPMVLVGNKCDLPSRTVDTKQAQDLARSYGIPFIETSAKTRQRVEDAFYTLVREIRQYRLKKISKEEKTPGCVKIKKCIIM

Legend:
[1] = test system: Phosphorylation of ERK1/2 in MIA PaCa-2 cells; assay: Phospho-ERK1/2 MSD assay in MIA PaCa-2 cells; assay type: cell-based; settings: Homo sapiens, MIA PaCa-2, 2 h, read-out: p-ERK IC50 (2 h; MIA PaCa-2)
Experimental: For compounds in Table 89, the following assay conditions were employed:
Phospho-ERK1/2 MSD Assay:
Sixteen hours prior to compound treatment, MIA PaCa-2 or A549 cells were seeded in 96-well cell culture plates at a density of 25,000 cells/well and incubated at 37° C., 5% CO2. A compound dose-response titration was diluted in growth media, added to appropriate wells of a cell culture plate, and then incubated at 37° C., 5% CO2 for 2 or 4 hours (see Table 15). Following compound treatment, cells were stimulated with 10 ng/mL EGF (Roche 11376454001) for 10 min, washed with ice-cold Dulbecco's phosphate-buffered saline, no Ca^2+ or Mg^2+ (ThermoFisher Scientific 14190144), and then lysed in RIPA buffer (50 mM Tris-HCl pH 7.5, 1% Igepal, 0.5% sodium deoxycholate, 150 mM NaCl, and 0.5% sodium dodecyl sulfate) containing protease inhibitors (Roche 4693132001) and phosphatase inhibitors (Roche 4906837001). Phosphorylation of ERK1/2 in compound-treated lysates was assayed using Phospho-ERK1/2 Whole Cell Lysate kits (Meso Scale Discovery K151DWD) according to the manufacturer's protocol. Assay plates were read on a Meso Scale Discovery Sector Imager 6000, and data were analyzed using a 4-parameter logistic model to calculate IC50 values.

[2] = molecular target: GDP-bound KRAS protein (aa 1-169), containing both G12C and C118A amino acid substitutions (Homo sapiens, UniProt P01116, C118A/G12C); assay: Coupled nucleotide exchange assay (SOS-mediated, AlphaScreen); assay type: biochemical

Compound	IC50 [1] [nM]	Coupled exchange IC50 (5 min) [2]
C=CC(=O)N1CCN(c2nc(=O)n(-c3c(C)ccnc3CCC)c3nc(-c4c(O)cccc4F)c(F)cc23)[C@@H](C)C1 [Example 58-2, 6-fluoro-7-(2-fluoro-6-hydroxyphenyl)-4-((2S)-2-methyl-4-(2-propenoyl)-1-piperazinyl)-1-(4-methyl-2-propyl-3-pyridinyl)pyrido[2,3-d]pyrimidin-2(1H)-one]	556	0.754 | nda μM
C=CC(=O)N1CCN(c2nc(=O)n(-c3c(C)ccnc3CCC)c3nc(-c4c(O)cccc4F)c(F)cc23)[C@@H](C)C1 (single isomer, unassigned) [Example 58-2-2]	–	1.96 | nda μM
C=CC(=O)N1CCN(c2nc(=O)n(-c3c(C)ccnc3CCC)c3nc(-c4c(O)cccc4F)c(F)cc23)[C@@H](C)C1 (single isomer, unassigned) [Example 58-2-1]	399	0.487 | nda μM
